Laboratory results: patent publication EP0522203A1, “Protein from lactic acid bacteria” (PROBICOM RESEARCH B.V., priority 1991, dated 1993)

Test system: endopeptidase
Experiment: Effect of potential inhibitors (chemical agents) on the endopeptidase activity (metenkaphalin hydrolysis, TLC)
Type: biochemical, L. lactis subsp. cremoris Wg2
Details: 1 mM chemical agent, purified enzyme 4 µg protein preincubated 10 min at 20°C, metenkaphalin 15 min at 30°C

O=[As]c1ccccc1 (stereo not shown)
Inhibition: -
